Earlier results, collected in US20040077540A1, “Compositions and methods for modulating physiology of epithelial junctional adhesion molecules for enhanced mucosal delivery of therapeutic compounds” (Nastech Pharmaceutical Company Inc., priority 2002, published 2004).

System: pronase and papain
Conditions: pH 7.2; cited from earlier work

## insulin
  time to complete degradation by pronase and papain: 2 to 3 h
